{
  "sequences": {"note": "Protein sequences, listed by entry. Tags and fused reporters are not part of them.", "UniProt P41145, whole entry E297Q, looked up": "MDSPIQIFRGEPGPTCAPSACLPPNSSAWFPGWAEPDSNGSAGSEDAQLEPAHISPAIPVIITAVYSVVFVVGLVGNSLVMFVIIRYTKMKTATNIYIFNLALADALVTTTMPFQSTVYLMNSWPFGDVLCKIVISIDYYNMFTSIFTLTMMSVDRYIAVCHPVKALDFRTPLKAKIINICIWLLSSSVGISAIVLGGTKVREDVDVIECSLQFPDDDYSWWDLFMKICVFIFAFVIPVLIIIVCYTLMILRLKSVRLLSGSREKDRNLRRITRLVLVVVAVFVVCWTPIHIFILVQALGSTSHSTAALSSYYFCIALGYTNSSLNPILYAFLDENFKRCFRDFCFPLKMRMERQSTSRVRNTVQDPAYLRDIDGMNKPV", "UniProt P41145, whole entry E297Q/S356A/T357A/S358A/T363A, looked up": "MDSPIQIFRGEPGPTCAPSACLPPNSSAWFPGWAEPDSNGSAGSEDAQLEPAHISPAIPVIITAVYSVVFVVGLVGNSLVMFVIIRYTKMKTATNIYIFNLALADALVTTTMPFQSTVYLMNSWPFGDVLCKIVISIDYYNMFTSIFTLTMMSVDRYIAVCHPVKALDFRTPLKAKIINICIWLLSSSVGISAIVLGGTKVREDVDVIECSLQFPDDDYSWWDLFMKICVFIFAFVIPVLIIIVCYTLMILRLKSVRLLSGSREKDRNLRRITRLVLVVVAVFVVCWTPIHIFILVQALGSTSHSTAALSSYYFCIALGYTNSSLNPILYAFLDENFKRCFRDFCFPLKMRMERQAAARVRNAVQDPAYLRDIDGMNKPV"},
  "source": "paper PMC551613",
  "about": "“Engineered G protein coupled receptors reveal independent regulation of internalization, desensitization and acute signaling” (2005)",
  "key": {"original RASSLs": {"test_system": "original RASSLs", "conditions": "spiradoline; cited from earlier work"}, "Rog-μ [1]": {"target": "T1, Rog-μ (Homo sapiens, UniProt P41145, E297Q, form not given)", "assay": "Cell-surface ELISA (receptor internalization / surface expression)", "conditions": "0.01 to 0.1 μM spiradoline, 1 h"}, "Rog [2]": {"target": "T2, Rog (Homo sapiens, UniProt P41145, E297Q, form not given)", "assay": "Cell-surface ELISA (receptor internalization / surface expression)"}, "KOR": {"test_system": "KOR", "assay": "Cell-surface ELISA (receptor internalization)", "conditions": "100 μM spiradoline, data not shown"}, "Rog-A [3]": {"target": "T3, Rog-A (Homo sapiens, UniProt P41145, E297Q/S356A/S358A/T357A/T363A, form not given)", "assay": "Cell-surface ELISA (receptor internalization)", "conditions": "1 μM spiradoline"}, "[4]": {"test_system": "RASSLs (all receptor types)", "assay": "Cell-surface ELISA in parallel with the AC superactivation experiment", "conditions": "10 nM spiradoline for 18 hours; no significant differences between receptor types"}, "Rog-μA": {"target": "Rog-μA (Homo sapiens, UniProt P41145, E297Q, form not given)", "assay": "cAMP accumulation assay (inhibition of forskolin-induced cAMP), HEK293 cells transiently expressing receptor"}, "Rog-μ [5]": {"target": "T1, Rog-μ", "assay": "cAMP accumulation assay (inhibition of forskolin-induced cAMP), HEK293 cells transiently expressing receptor"}, "human KOR": {"target": "human KOR (Homo sapiens, UniProt P41145)", "assay": "cAMP accumulation assay (inhibition of forskolin-induced cAMP), HEK293 cells transiently expressing receptor", "conditions": "read-out: EC50 for inhibition of cAMP accumulation, acute, representative experiment"}, "Rog-A [6]": {"target": "T3, Rog-A", "assay": "cAMP accumulation assay (inhibition of forskolin-induced cAMP), HEK293 cells transiently expressing receptor"}, "Rog [7]": {"target": "T2, Rog", "assay": "cAMP accumulation assay (inhibition of forskolin-induced cAMP), HEK293 cells transiently expressing receptor"}, "Rog-μ [8]": {"target": "T1, Rog-μ", "assay": "Confocal microscopy of GFP-tagged receptor localization", "conditions": "10 μM spiradoline, one hour"}, "Rog-A [9]": {"target": "T3, Rog-A", "assay": "Confocal microscopy of GFP-tagged receptor localization", "conditions": "10 μM spiradoline, one hour, stable HEK293"}, "Rog [10]": {"target": "T2, Rog", "assay": "Confocal microscopy of GFP-tagged receptor localization", "conditions": "spiradoline 10–100 μM, one hour"}, "Rog [11]": {"target": "T2, Rog", "assay": "FLIPR calcium assay, CHO cells co-transfected with Gqi5", "conditions": "Rog in CHO cells; range of doses"}, "[12]": {"conditions": "read-out: EC50 for inhibition of cAMP accumulation, acute activation, mean ± SEM"}, "[13]": {"conditions": "after 1 nM spiradoline pretreatment, mean ± SEM"}, "[14]": {"conditions": "read-out: EC50 for inhibition of cAMP accumulation, after 1 nM spiradoline pretreatment, mean ± SEM"}},
  "note": "pEC50: −log10 of the molar value. Like-named read-outs stand apart in the source and are kept apart here.",
  "data": [
    {"smiles": "CN(C(=O)Cc1ccc(Cl)c(Cl)c1)C1CCC2(CCCO2)CC1N1CCCC1", "note": "(centres unmarked)", "values": [
      {"measurement": "response relative to the wild-type KOR", "setting": "original RASSLs", "result": "not altered"},
      {"measurement": "internalization", "setting": "Rog-μ [1]", "result": "25–30%"},
      {"measurement": "time to maximal receptor loss", "setting": "Rog [2]; 1 μM spiradoline", "result": "approximately 20 min"},
      {"measurement": "loss of cell-surface receptors", "setting": "Rog [2]; 100 μM spiradoline (maximal dose), 1 h", "result": "approximately 45%"},
      {"measurement": "loss of receptor from the cell surface", "setting": "KOR", "result": 47, "unit": "%"},
      {"measurement": "time to maximal internalization", "setting": "Rog-A [3]", "result": 20, "unit": "min"},
      {"measurement": "receptors internalized", "setting": "Rog-A [3]; 20 min", "result": "< 10", "unit": "%"},
      {"measurement": "receptors internalized", "setting": "[4]", "result": "7–10%"},
      {"measurement": "AC superactivation (forskolin-stimulated cAMP after chronic agonist)", "setting": "Rog-μA; 18 h spiradoline pretreatment", "result": "no evidence of AC superactivation"},
      {"measurement": "pEC50", "setting": "Rog-μA; [12]", "result": 9.30},
      {"measurement": "pEC50", "setting": "Rog-μA; read-out: EC50 for inhibition of cAMP accumulation, after 1 nM spiradoline pretreatment, estimate, no sigmoidal curve fitted up to 100 nM", "result": "≤ 7.87"},
      {"measurement": "AC superactivation (forskolin-stimulated cAMP after chronic agonist)", "setting": "Rog-μ [5]; 18 h spiradoline pretreatment", "result": "no evidence of AC superactivation"},
      {"measurement": "% Inhibition of cAMP accumulation (Emax)", "setting": "Rog-μ [5]; [13]", "result": "43.6 ± 1.5", "unit": "%"},
      {"measurement": "pEC50", "setting": "Rog-μ [5]; [12]", "result": 9.38},
      {"measurement": "pEC50", "setting": "Rog-μ [5]; [14]", "result": 8.69},
      {"measurement": "pEC50", "setting": "human KOR", "result": 9.04},
      {"measurement": "% Inhibition of cAMP accumulation (Emax)", "setting": "Rog-A [6]; [13]", "result": "53.3 ± 0.9", "unit": "%"},
      {"measurement": "AC superactivation (forskolin-stimulated cAMP after chronic agonist)", "setting": "Rog-A [6]; overnight spiradoline, then 10 μM forskolin, compared with Rog", "result": "slightly smaller increase in cAMP"},
      {"measurement": "pEC50", "setting": "Rog-A [6]; [12]", "result": 9.39},
      {"measurement": "pEC50", "setting": "Rog-A [6]; [14]", "result": 9.38},
      {"measurement": "shift of dose response curve after spiradoline pretreatment", "setting": "Rog [7]; 1 nM spiradoline pretreatment vs vehicle", "result": "approximately 10 fold"},
      {"measurement": "AC superactivation (forskolin-stimulated cAMP after chronic agonist)", "setting": "Rog [7]; 10 nM spiradoline 18 hours, then 10 μM forskolin, vs forskolin alone", "result": "twice as much cAMP"},
      {"measurement": "% Inhibition of cAMP accumulation (Emax)", "setting": "Rog [7]; [13]", "result": "55.7 ± 3.7", "unit": "%"},
      {"measurement": "pEC50", "setting": "Rog [7]; read-out: EC50 for inhibition of cAMP accumulation, acute activation (15-min treatment), mean ± SEM", "result": 9.39},
      {"measurement": "pEC50", "setting": "Rog [7]; [14]", "result": 8.36},
      {"measurement": "receptor internalization seen by confocal microscopy", "setting": "Rog-μ [8]", "result": "nearly complete internalization"},
      {"measurement": "receptor internalization seen by confocal microscopy", "setting": "Rog-A [9]", "result": "most Rog-A receptors appeared to remain in the membrane"},
      {"measurement": "receptor internalization seen by confocal microscopy", "setting": "Rog [10]", "result": "observed in bright, punctate intracellular vesicles"},
      {"measurement": "transient calcium response (Gi activation via Gqi5)", "setting": "Rog [11]", "result": "responded dose-dependently"}
    ]}
  ]
}
